# Binding of CDR-mutated scFvs to a peptide of the spike HR2 region

Target peptide (SARS-CoV-2 spike, HR2 region): PDVDLGDISGINAS

Parent: Ab-91, a human scFv built as VL, a 15-residue (Gly4Ser)3 linker, VH. Only the CDRs of the heavy chain vary.
VL: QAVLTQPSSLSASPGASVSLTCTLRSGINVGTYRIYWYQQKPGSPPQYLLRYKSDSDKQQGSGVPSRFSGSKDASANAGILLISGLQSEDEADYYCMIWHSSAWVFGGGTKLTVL
VH: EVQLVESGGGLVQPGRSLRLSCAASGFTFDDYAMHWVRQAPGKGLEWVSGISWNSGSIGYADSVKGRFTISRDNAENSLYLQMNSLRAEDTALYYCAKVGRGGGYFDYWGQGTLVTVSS

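The starting antibody came from a phage panning campaign against this peptide. In library AAYL51, one, two or three CDR residues were substituted; doubles and triples were drawn at random. In AlphaSeq, yeast of one mating type display the scFv and yeast of the other type display the target. Mating (16 h, 30 °C) was followed by selection of diploids and sequencing of their barcodes. A regression on co-assayed BCL2-family reference pairs converts the normalised counts of each replicate to an apparent Kd. There are three technical replicates.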

Substitutions are numbered in sequence along the VH above, starting at 1 (not Kabat).
Scale: log10 of Kd in nM, estimated from mating counts; low values are strong binders.
The mean shown is taken over the replicates in which the pair was detected.
"nd" means that the variant was in the library but no mating with the target was seen in any replicate; the authors take this as a sign of poor binding, and no number exists.
Empty control strains, which show no peptide, gave a signal in 21% of pairings with library AAYL51; the median was 4.54 and 95% of these signals were weaker than 3.26. No background was subtracted. The control count says in how many pairings with the empty strains this scFv gave a signal.
For reference, the parent read 1.86 as the reference entry and 0.88 as a member of this library.

log10 Kd (nM), mean	replicates with signal	empty controls	changes
5.36	2 of 3	1 of 9	F27D+T28V+Y60S
nd	0 of 3	0 of 9	G59H+R101A+Y108I
2.27	3 of 3	0 of 9	G26Q+R101Q+Y108A
3.91	1 of 3	2 of 9	D31Q+K65S+G104W
4.41	1 of 3	2 of 9	F29N+S57R
4.19	1 of 3	3 of 9	H35G+S63P+V64S
4.44	1 of 3	2 of 9	Y32N+Y105E
nd	0 of 3	1 of 9	S57P+G59N+R101F
4.92	3 of 3	6 of 9	A33Q+S52R+R101H
nd	0 of 3	0 of 9	A33F+H35E+A61V
4.44	2 of 3	4 of 9	D31L+S63D
3.14	2 of 3	5 of 9	D31Y+Y32E+W53A
4.45	3 of 3	5 of 9	A61P+G102L+Y108Q
4.29	1 of 3	1 of 9	H35W+V64C+V99T
4.91	1 of 3	6 of 9	N54T+Y105E+Y108I
3.64	3 of 3	3 of 9	T28W+S57H
3.79	1 of 3	3 of 9	G59I+Y60G+G104L
5.19	2 of 3	4 of 9	Y32E+S52K+A61V
4.70	2 of 3	2 of 9	I51R+V64H+F106R
5.27	3 of 3	8 of 9	F29W+Y32A+K65R
6.59	2 of 3	4 of 9	F29V+D30C
nd	0 of 3	1 of 9	D62V+K65W+G102V
nd	0 of 3	2 of 9	S55H+G56R+S57M
5.04	1 of 3	3 of 9	G26S+S55K+G100S
nd	0 of 3	2 of 9	F29W+I51G+S57P
4.91	2 of 3	1 of 9	I51Q+S55E+Y60N
nd	0 of 3	1 of 9	D31S+G56W+R101Q
nd	0 of 3	0 of 9	Y32W+G50Y+S52P
5.06	1 of 3	4 of 9	M34C+I58G+V64S
5.24	2 of 3	1 of 9	A33I+M34Q+V99S
nd	0 of 3	0 of 9	G100A+G103C+Y105E
nd	0 of 3	0 of 9	H35K+D62T+G103N
nd	0 of 3	0 of 9	Y60F+A61P+G102H
5.25	2 of 3	3 of 9	S57R+V99Q
3.32	1 of 3	0 of 9	F29T+S63Q+G104E
nd	0 of 3	0 of 9	S55F+K65C+Y105M
4.70	1 of 3	3 of 9	Y32I+A61G+D62P
nd	0 of 3	2 of 9	A61R+D62F+F106I
5.07	3 of 3	3 of 9	H35Q+G100F+F106Q
nd	0 of 3	0 of 9	F27K+T28C+R101N
nd	0 of 3	5 of 9	T28E+G50V+Y108E
nd	0 of 3	2 of 9	T28D+D62S+V99D
nd	0 of 3	0 of 9	G26L+N54R+I58T
nd	0 of 3	0 of 9	F29L+D31Y+G103P
1.13	1 of 3	0 of 9	A61T+Y108P

Picked from the list: the 4 lowest averages where every replicate gave a value.

changes	log10 Kd (nM), mean	replicates with signal	empty controls
G26Q+R101Q+Y108A	2.27	3 of 3	0 of 9
T28W+S57H	3.64	3 of 3	3 of 9
A61P+G102L+Y108Q	4.45	3 of 3	5 of 9
A33Q+S52R+R101H	4.92	3 of 3	6 of 9

The measurements come from Engelhart et al. 2022 (doi:10.1038/s41597-022-01779-4) through the FLAb antibody collection.